The results in this text go back to patent US8314256B2, “Modulators of ATP-binding cassette transporters” (Vertex Pharmaceuticals Incorporated, priority 2005, dated 2012).

Protein sequences, listed by entry. Tags and fused reporters are not part of them. Chains listed by the source or under a name are the forms on record and can include a tag or linker.
UniProt P13569, with tags, fused parts or gaps DEL508-508: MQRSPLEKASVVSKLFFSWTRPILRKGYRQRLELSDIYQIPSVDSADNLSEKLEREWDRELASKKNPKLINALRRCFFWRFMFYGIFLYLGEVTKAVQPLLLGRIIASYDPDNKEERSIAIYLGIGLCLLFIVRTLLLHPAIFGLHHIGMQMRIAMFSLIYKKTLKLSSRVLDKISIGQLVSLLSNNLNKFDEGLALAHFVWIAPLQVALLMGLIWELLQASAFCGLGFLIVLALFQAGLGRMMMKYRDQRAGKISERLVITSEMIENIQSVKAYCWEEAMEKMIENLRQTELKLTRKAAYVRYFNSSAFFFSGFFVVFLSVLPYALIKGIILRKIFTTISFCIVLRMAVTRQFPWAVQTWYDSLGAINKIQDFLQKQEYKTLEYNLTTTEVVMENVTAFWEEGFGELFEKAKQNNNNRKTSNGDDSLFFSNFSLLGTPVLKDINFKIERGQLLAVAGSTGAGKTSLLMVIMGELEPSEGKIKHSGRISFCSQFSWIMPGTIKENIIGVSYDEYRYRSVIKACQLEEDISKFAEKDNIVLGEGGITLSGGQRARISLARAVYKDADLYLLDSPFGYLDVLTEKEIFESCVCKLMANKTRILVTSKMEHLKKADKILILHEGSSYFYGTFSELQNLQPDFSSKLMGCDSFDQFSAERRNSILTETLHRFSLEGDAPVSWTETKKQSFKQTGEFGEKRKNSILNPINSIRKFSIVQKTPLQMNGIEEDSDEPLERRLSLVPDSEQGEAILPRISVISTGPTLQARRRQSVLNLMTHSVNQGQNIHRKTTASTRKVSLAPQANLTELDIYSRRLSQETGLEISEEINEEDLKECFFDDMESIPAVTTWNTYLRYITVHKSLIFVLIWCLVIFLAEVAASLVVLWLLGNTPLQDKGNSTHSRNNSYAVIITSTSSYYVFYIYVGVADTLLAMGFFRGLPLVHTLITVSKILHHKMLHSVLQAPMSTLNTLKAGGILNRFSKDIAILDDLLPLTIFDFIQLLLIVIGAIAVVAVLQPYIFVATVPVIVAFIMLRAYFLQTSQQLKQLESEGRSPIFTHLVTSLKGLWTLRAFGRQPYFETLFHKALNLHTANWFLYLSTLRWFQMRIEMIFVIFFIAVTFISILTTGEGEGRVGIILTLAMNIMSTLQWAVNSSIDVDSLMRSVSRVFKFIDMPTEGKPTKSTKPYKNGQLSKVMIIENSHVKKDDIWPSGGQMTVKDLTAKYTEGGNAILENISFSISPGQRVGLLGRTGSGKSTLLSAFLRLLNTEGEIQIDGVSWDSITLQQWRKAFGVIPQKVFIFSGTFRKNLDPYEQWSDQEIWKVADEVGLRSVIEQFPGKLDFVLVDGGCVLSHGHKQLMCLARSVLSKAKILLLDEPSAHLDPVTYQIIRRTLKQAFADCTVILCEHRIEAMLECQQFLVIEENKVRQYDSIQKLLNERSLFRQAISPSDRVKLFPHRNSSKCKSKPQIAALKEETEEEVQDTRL

The target in the experiment is ΔF508-CFTR (Homo sapiens, UniProt P13569, DEL508-508). The experiment in a line: Membrane potential optical assay of ΔF508-CFTR modulation (Table 3 EC50; the table does not name the assay). An excerpt:
Membrane Potential Optical Methods for Assaying ΔF508-CFTR Modulation Properties of Compounds
The optical membrane potential assay utilized voltage-sensitive FRET sensors described by Gonzalez and Tsien (See, Gonzalez, J. E. and R. Y. Tsien (1995) “Voltage sensing by fluorescence resonance energy transfer in single cells” Biophys J 69(4): 1272-80, and Gonzalez, J. E. and R. Y. Tsien (1997) “Improved indicators of cell membrane potential that use fluorescence resonance energy transfer” Chem Biol 4(4): 269-77) in combination with instrumentation for measuring fluorescence changes such as the Voltage/Ion Probe Reader (VIPR) (See, Gonzalez, J. E., K. Oades, et al. (1999) “Cell-based assays and instrumentation for screening ion-channel targets” Drug Discov Today 4(9): 431-439).
These voltage sensitive assays are based on the change in fluorescence resonant energy transfer (FRET) between the membrane-soluble, voltage-sensitive dye, DiSBAC2(3), and a fluorescent phospholipid, CC2-DMPE, which is attached to the outer leaflet of the plasma membrane and acts as a FRET donor. […] The changes in fluorescence emission were monitored using VIPR II, which is an integrated liquid handler and fluorescent detector designed to conduct cell-based screens in 96- or 384-well microtiter plates. […]

A word on the EC50: it is the concentration at which the effect is half-maximal. For `CC12CCC(C1)C(C)(C)C2NC(=O)C(=O)c1c[nH]c2ccc(Br)cc12` (stereo not shown), the 50% effective concentration (EC50) was 1000 to 5000 nM.
